Earlier results as cited in US7179597B2, “Genetic diagnosis for QT prolongation related adverse drug reactions” (Georgetown University, priority 2000, dated 2007).
“Also recorded” adds a separate entry of the source.

Chains of the proteins cited; added tags and fusions are not shown.
UniProt P10635, whole entry: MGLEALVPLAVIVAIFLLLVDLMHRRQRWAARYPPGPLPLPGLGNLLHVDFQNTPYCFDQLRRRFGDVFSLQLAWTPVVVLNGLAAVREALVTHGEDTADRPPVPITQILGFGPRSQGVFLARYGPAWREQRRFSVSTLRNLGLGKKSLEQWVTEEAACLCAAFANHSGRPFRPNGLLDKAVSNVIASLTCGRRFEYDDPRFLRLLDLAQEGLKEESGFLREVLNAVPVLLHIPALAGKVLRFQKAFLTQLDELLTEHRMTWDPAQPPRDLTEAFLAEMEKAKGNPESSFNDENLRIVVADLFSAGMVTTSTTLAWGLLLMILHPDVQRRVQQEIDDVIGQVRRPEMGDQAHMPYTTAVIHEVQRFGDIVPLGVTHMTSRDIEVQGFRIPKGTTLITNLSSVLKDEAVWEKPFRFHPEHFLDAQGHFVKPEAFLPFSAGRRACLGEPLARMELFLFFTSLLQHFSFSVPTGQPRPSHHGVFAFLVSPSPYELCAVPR

Molecular target: CYP2D6 (Homo sapiens, UniProt P10635)
Conditions: Table 3; cited from earlier work

CNCCC(Oc1ccc(C(F)(F)F)cc1)c1ccccc1 (stereo not shown) [Fluoxetine]
Interactions: cytochrome P-450 isoform 2D6, substrate or inhibitor: Substrate; also recorded: Inhibitor
